The chains behind the UniProt entries cited, without tags or fusion partners. Residues count along the entry.
UniProt Q14191, 2-1432: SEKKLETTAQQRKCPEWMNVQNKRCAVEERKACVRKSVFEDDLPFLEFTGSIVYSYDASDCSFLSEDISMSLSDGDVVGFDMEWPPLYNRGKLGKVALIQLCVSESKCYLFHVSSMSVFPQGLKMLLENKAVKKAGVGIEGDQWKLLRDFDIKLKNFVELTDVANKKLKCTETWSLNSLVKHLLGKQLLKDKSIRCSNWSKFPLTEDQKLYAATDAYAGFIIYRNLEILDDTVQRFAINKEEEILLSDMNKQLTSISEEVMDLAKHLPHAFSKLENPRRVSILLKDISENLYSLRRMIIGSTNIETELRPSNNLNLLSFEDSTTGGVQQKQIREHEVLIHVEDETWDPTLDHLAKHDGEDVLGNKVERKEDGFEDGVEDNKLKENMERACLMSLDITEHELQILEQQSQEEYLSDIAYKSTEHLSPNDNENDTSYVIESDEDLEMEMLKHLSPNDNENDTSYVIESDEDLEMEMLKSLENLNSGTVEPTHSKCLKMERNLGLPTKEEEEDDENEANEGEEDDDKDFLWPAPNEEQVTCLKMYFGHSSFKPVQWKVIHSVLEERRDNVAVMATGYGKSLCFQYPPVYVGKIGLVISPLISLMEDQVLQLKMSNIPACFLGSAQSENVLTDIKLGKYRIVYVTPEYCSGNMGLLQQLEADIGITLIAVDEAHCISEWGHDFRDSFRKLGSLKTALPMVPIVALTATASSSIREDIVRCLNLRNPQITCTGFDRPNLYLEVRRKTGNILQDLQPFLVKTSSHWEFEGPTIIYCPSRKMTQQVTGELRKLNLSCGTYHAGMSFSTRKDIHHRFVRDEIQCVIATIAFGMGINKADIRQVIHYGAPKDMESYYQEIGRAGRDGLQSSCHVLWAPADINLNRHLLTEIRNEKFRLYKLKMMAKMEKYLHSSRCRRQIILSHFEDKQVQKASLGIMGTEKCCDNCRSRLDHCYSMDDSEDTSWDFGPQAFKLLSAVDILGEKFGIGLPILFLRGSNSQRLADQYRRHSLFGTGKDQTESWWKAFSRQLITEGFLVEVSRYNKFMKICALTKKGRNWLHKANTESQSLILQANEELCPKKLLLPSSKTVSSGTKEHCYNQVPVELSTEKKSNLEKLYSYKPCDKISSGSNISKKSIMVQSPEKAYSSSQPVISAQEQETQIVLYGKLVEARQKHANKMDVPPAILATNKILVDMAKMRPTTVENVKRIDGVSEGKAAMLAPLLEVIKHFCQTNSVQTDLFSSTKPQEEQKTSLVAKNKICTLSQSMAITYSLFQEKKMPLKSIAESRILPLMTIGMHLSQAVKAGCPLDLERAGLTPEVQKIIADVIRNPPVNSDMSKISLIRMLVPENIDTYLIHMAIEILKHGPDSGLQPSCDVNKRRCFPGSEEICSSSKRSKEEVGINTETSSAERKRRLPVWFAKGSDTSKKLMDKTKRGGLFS

According to US20250346600A1, “TRICYCLIC DERIVATIVES AND RELATED USES” (MOMA Therapeutics, Inc., priority 2023, published 2025):

Experiments:
[1] = target: T1, Full length WRN protein (aa 2-1432) (Homo sapiens (Human), UniProt Q14191); experiment: WRN ATPase ADP-Glo biochemical assay, Assay Format A (10 μM ATP); details: 0.25 nM WRN, 100 nM C6.18 ssDNA, 30 min preincubation, read-out: ATPase ADPGlo AC50 (uM)- Assay Format A
Excerpt: Full length Werner helicase construct (Uniprot: Q14191) with an N-terminal FLAG-AVI-TEV tag was expressed using the Sf9 cell/baculovirus expression system. The harvested cell pellet was resuspended and lysed in a glass homogenizer. After insoluble material was removed by centrifugation, the helicase protein was first purified with FLAG affinity resin and then further purified through a size-exclusion chromatography column. Peak fractions containing the purified protein were concentrated, split into aliquots and frozen in liquid nitrogen to be thawed before use. Biochemical Assay Description (ATPase activity)-Assay Format A WRN activity was measured using an ATPase assay. Full length WRN protein (aa 2-1432) (production described separately) was used for the biochemical activity assays. The 39-mer ssDNA “C6.18” [NT] was purchased from IDT and used as a substrate. Quantification of ATP hydrolysis was evaluated using the ADP-Glo assay kit (Promega, Madison, WI). An enzyme titration time-course was performed to determine the optimal assay conditions. […] To evaluate the inhibitory effects of the compounds, 11-point 3-fold serial dilutions were prepared in DMSO. […] Lastly, 20 μL ATP detection reagent was added and incubated for 1 hour to generate the luminescence signal. […] Luminescence was recorded on a PHERAstar (BMG Labtech, Ortenberg, Germany). […]

[2] = target: T1, Full length WRN protein (aa 2-1432); experiment: WRN ATPase ADP-Glo biochemical assay, Assay Format B (100 μM ATP); details: 0.25 nM WRN, 100 nM C6.18 ssDNA, 60 min preincubation, read-out: ATPase ADPGlo AC50 (uM)- Assay Format B

1-(5-(7-bromo-1H- benzo[d]imidazole-4- carbonyl)-2-(4- cyclobutylphenyl)- 2,3,4,5,5a,6-hexahydro- 1,2,5,7- tetraazaspiro[benzo[cd] azulene-9,1′- cyclopropan]-1(9a),2a- dien-7(8H)-yl)prop-2-en- 1-one [Compound 169]
AC50 [1]: < 0.0015 µM | AC50 [2]: 0.015 to 0.055 µM
